Experimental findings from patent US6653300B2, “Pyrazole compounds useful as protein kinase inhibitors” (Vertex Pharmaceuticals Incorporated, priority 2000, dated 2003) are described below.

By UniProt entry, the sequences of proteins in these tests, tags left out. Where a name states a change or a piece, a line headed by the entry shows the natural chain unless it says otherwise.
UniProt P49841: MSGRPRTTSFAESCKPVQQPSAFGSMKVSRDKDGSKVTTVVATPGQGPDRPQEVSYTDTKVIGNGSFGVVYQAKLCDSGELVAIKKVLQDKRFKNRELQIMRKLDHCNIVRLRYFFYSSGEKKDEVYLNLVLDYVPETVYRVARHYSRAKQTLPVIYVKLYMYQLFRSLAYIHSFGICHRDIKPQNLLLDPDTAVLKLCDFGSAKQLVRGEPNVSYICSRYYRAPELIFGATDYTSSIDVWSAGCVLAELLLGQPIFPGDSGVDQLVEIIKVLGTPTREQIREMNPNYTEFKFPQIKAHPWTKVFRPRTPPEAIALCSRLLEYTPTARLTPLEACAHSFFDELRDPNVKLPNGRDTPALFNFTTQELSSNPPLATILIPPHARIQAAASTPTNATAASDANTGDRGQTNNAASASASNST
UniProt P12931, whole entry: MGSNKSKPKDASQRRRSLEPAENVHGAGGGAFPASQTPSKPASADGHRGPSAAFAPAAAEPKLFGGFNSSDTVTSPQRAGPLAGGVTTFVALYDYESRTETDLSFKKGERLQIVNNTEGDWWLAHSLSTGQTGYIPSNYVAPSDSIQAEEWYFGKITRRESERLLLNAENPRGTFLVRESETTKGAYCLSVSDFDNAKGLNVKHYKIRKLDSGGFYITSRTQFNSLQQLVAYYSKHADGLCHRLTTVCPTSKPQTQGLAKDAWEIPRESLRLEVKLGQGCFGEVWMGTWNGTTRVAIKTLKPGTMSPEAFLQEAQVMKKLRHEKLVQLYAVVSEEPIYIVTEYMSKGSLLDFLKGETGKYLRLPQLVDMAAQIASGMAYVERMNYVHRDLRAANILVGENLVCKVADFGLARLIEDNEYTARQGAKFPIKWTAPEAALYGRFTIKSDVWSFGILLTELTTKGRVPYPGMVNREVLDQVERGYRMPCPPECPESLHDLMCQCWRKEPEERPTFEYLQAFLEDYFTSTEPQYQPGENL

Format in all cases: biochemical
Assay [1] concerns the target T1, GSK-3β (AA 1-420) (Homo sapiens, UniProt P49841).
T1 construct: GSK-3β (AA 1-420)
The assay is described as follows: Ki determination for the inhibition of GSK-3 (coupled enzyme system). Particulars: 20 nM GSK-3β, 30° C. The method, then:
Compounds were screened for their ability to inhibit GSK-3β (AA 1-420) activity using a standard coupled enzyme system (Fox et al. (1998) Protein Sci. 7, 2249). Reactions were carried out in a solution containing 100 mM HEPES (pH 7.5), 10 mM MgCl2, 25 mM NaCl, 300 μM NADH, 1 mM DTT and 1.5% DMSO. Final substrate concentrations in the assay were 20 μM ATP (Sigma Chemicals, St Louis, Mo.) and 300 μM peptide (HSSPHQS (PO3H2) EDEEE, American Peptide, Sunnyvale, Calif.). Reactions were carried out at 30° C. and 20 nM GSK-3β. Final concentrations of the components of the coupled enzyme system were 2.5 mM phosphoenolpyruvate, 300 μM NADH, 30 μg/ml pyruvate kinase and 10 μg/ml lactate dehydrogenase.
An assay stock buffer solution was prepared containing all of the reagents listed above with the exception of ATP and the test compound of interest. The assay stock buffer solution (175 μl) was incubated in a 96 well plate with 5 μl of the test compound of interest at final concentrations spanning 0.002 μM to 30 μM at 30° C. for 10 min. […] The reaction was initiated by the addition of 20 μl of ATP (final concentration 20 μM). Rates of reaction were obtained using a Molecular Devices Spectramax plate reader (Sunnyvale, Calif.) over 10 min at 30° C. The Ki values were determined from the rate data as a function of inhibitor concentration.

In assay [2] the target is T2, Aurora-2 (Homo sapiens, UniProt O14965).
T2 sequence (O14965 1-403): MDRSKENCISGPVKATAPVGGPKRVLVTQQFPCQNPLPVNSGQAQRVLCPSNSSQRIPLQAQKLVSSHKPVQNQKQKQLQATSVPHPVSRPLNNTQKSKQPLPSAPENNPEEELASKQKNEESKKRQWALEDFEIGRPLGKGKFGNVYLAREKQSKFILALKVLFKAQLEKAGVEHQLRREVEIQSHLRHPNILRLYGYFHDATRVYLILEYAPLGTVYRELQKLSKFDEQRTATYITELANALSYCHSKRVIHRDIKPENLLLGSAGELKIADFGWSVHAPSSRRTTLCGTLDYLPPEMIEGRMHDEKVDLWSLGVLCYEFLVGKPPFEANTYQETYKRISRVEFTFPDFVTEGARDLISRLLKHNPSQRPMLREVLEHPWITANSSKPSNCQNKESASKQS
The assay is described as follows: Ki determination for the inhibition of Aurora-2 (coupled enzyme assay). The method, then: Compounds were screened in the following manner for their ability to inhibit Aurora-2 using a standard coupled enzyme assay (Fox et al (1998) Protein Sci 7, 2249).
To an assay stock buffer solution containing 0.1M HEPES 7.5, 10 mM MgCl2, 1 mM DTT, 25 mM NaCl, 2.5 mM phosphoenolpyruvate, […], 30 mg/ml pyruvate kinase, 10 mg/ml lactate dehydrogenase, […], and 800 μM peptide (LRRASLG, American Peptide, Sunnyvale, Calif.) was added a DMSO solution of a compound of the present invention to a final concentration of 30 μM. The resulting mixture was incubated at 30° C. for 10 min. The reaction was initiated by the addition of 10 μL of Aurora-2 stock solution to give a final concentration of 70 nM in the assay. The rates of reaction were obtained by monitoring absorbance at 340 nm over a 5 minute read time at 30° C. using a BioRad Ultramark plate reader (Hercules, Calif.). The Ki values were determined from the rate data as a function of inhibitor concentration.

Assay [3] deals with T3, human Src kinase (Homo sapiens, UniProt P12931).
T3 construct: full length recombinant human Src kinase (from Upstate Biotechnology, cat. no. 14-117); purchased Upstate Biotechnology 14-117; host or cells: baculo viral cells
The experiment in a line: SRC inhibition assay (radioactivity-based or spectrophotometric assay). The method, then: The compounds were evaluated as inhibitors of human Src kinase using either a radioactivity-based assay or spectrophotometric assay. The compounds were assayed as inhibitors of full length recombinant human Src kinase (from Upstate Biotechnology, cat. no. 14-117) expressed and purified from baculo viral cells. […] P-0275). […] In a typical assay, all the reaction components with the exception of ATP were pre-mixed and aliquoted into assay plate wells. […] The assay plate was incubated at 30° C. for 10 min before initiating the reaction with ^33P-ATP. After 20 min of reaction, the reactions were quenched with 150 μl of 10% trichloroacetic acid (TCA) containing 20 mM Na3PO4. The quenched samples were then transferred to a 96-well filter plate (Whatman, UNI-Filter GF/F Glass Fiber Filter, cat no. 7700-3310) installed on a filter plate vacuum manifold. Filter plates were washed four times with 10% TCA containing 20 mM Na3PO4 and then 4 times with methanol. 200 μl of scintillation fluid was then added to each well. The plates were sealed and the amount of radioactivity associated with the filters was quantified on a TopCount scintillation counter. The radioactivity incorporated was plotted as a function of the inhibitor concentration. The data was fitted to a competitive inhibition kinetics model to get the Ki for the compound. The ADP produced from ATP by the human recombinant Src kinase-catalyzed phosphorylation of poly Glu-Tyr substrate was quanitified using a coupled enzyme assay (Fox et al (1998) Protein Sci 7, 2249). In this assay one molecule of NADH is oxidised to NAD for every molecule of ADP produced in the kinase reaction. The disappearance of NADH can be conveniently followed at 340 nm. […] In a typical assay, all the reaction components with the exception of ATP were pre-mixed and aliquoted into assay plate wells. […] The absorbance change at 340 nm with time, the rate of the reaction, was monitored on a molecular devices plate reader. The data of rate as a function of the inhibitor concentration was fitted to competitive inhibition kinetics model to get the Ki for the compound.

The mark [4] stands for this setting: 70 nM Aurora-2, 30° C., read-out: Ki values for Aurora-2.
Where [5] appears, read: 20 μM ATP, read-out: Ki values for GSK-3.

Like-named read-outs stand apart in the source and are kept apart here.

Consider `Cc1cc(Nc2nc(Nc3ccccc3)nc3ccccc23)n[nH]1` [IIc-4, (5-Methyl-2H-pyrazol-3-yl)-(2-phenylamino-quinazolin-4-yl)-amine], for which the inhibition constant Ki was 100 to 1000 nM in assay [1] (Ki values for GSK-3, 20 μM ATP) and under 100 nM in assay [2] (setting [4]).

For `Cc1cc(Nc2nc(Sc3ccc(Cl)c(Cl)c3)nc3ccccc23)n[nH]1` [IIa-18, [2-(3,4-Dichlorophenylsulfanyl)-quinazolin-4-yl]-(5-methyl-2H-pyrazol-3-yl)-amine], the Ki in assay [1] (setting [5]) and in assay [2] (setting [4]) was under 100 nM in each case.

Consider `Cc1cc(Nc2nc(Sc3ccc(Cl)cc3)nc3ccccc23)n[nH]1` [IIa-2, [2-(4-Chlorophenylsulfanyl)-quinazolin-4-yl]-(5-methyl-2H-pyrazol-3-yl)-amine], for which the Ki in assay [1] (setting [5]) and in assay [2] (setting [4]) was under 100 nM in each case.

As for `Cc1cc(Nc2nc(Sc3cccc(Cl)c3Cl)nc3ccccc23)n[nH]1` [IIa-8, [2-(2,3-Dichlorophenylsulfanyl)-quinazolin-4-yl]-(5-methyl-2H-pyrazol-3-yl)-amine], the Ki is under 100 nM in assay [1] (Ki values for GSK-3, 20 μM ATP) and under 100 nM in assay [2].

Turning to `Cc1cc(Nc2nc(N(CCO)c3ccccc3)nc3ccccc23)n[nH]1` [IIc-1, {2-[(2-Hydroxyethyl)phenylamino]-quinazolin-4-yl}-(5-methyl-2H-pyrazol-3-yl)-amine], the Ki in assay [1] (Ki values for GSK-3, 20 μM ATP) was 100 to 1000 nM; in assay [2] (setting [4]) it was under 100 nM; in assay [3], 1000 to 6000 nM.

Regarding `Cc1cc(Nc2nc(Sc3ccc(NC(=O)C4CC4)cc3)nc3ccccc23)n[nH]1` [IIa-51, [2-(4-cyclopropanecarbonylamino-phenylsulfanyl)-quinazolin-4-yl]-(5-methyl-2H-pyrazol-3-yl)-amine], the Ki was 1000 to 7000 nM in assay [1] (Ki values for GSK-3, 20 μM ATP) and under 100 nM in assay [2] (setting [4]).

As for `Cc1cc(Nc2nc(Sc3ccccc3)nc3ccccc23)n[nH]1` [IIa-1, (5-Methyl-2H-pyrazol-3-yl)-(2-phenylsulfanyl-quinazolin-4-yl)-amine], the Ki was 100 to 1000 nM in assay [1] (Ki values for GSK-3, 20 μM ATP) and under 100 nM in assay [2] (setting [4]).

As for `Cc1cc(Nc2nc(N(C)c3ccccc3)nc3ccccc23)n[nH]1` [IIc-2, [2-(Methylphenylamino)-quinazolin-4-yl]-(5-methyl-2H-pyrazol-3-yl)-amine], the Ki in assay [1] (Ki values for GSK-3, 20 μM ATP) is 100 to 1000 nM; in assay [2] (setting [4]), under 100 nM; in assay [3], 1000 to 6000 nM.

As for `CCC(=O)Nc1ccc(Sc2nc(Nc3cc(C)[nH]n3)c3ccccc3n2)cc1` [IIa-50, (5-Methyl-2H-pyrazol-3-yl)-[2-(4-propionylamino-phenylsulfanyl)-quinazolin-4-yl]-amine], the Ki in assay [1] (Ki values for GSK-3, 20 μM ATP) is 1000 to 7000 nM; in assay [2] (setting [4]), under 100 nM.

As to `Cc1cc(Nc2nc(Sc3ccc4ccccc4c3)nc3ccccc23)n[nH]1` [IIa-16, [2-(2-Naphthalenylsulfanyl)-quinazolin-4-yl]-(5-methyl-2H-pyrazol-3-yl)-amine], in assay [2] (setting [4]), the Ki is under 100 nM.

`CC(=O)Nc1ccc(Sc2nc(Nc3cc(C4CC4)[nH]n3)c3ccccc3n2)cc1` [IIa-36, [2-(4-Acetamido-phenylsulfanyl)-quinazolin-4-yl]-(5-cyclopropyl-2H-pyrazol-3-yl)-amine]: the Ki is 100 to 1000 nM in assay [1] (Ki values for GSK-3, 20 μM ATP) and under 100 nM in assay [2].

In the case of `Cc1cc(Nc2nc(Sc3ccc(Cl)cc3Cl)nc3ccccc23)n[nH]1` [IIa-3, [2-(2,4-Dichlorophenylsulfanyl)-quinazolin-4-yl]-(5-methyl-2H-pyrazol-3-yl)-amine], the Ki in assay [1] (setting [5]) and in assay [2] (setting [4]) was under 100 nM in each case.

With `Cc1cc(Nc2nc(Sc3ccc(NC(=O)OC(C)(C)C)cc3)nc3ccccc23)n[nH]1` [IIa-58, [2-(4-tert-Butoxycarbonylamino-phenylsulfanyl)-quinazolin-4-yl]-(5-methyl-2H-pyrazol-3-yl)-amine], in assay [2] (setting [4]), the Ki was under 100 nM.

On to `COc1ccccc1Sc1nc(Nc2cc(C)[nH]n2)c2ccccc2n1` [IIa-15, [2-(2-Methoxyphenylsulfanyl)-quinazolin-4-yl]-(5-methyl-2H-pyrazol-3-yl)-amine], for which the Ki was 100 to 1000 nM in assay [1] (Ki values for GSK-3, 20 μM ATP) and under 100 nM in assay [2] (setting [4]).

Consider `CN(c1ccccc1)c1nc(Nc2n[nH]c3ccccc23)c2ccccc2n1` [IIc-74, (1H-Indazol-3-yl)-(2-methyl-phenyl-amino-quinazolin-4-yl)-amine], for which, in assay [1] (Ki values for GSK-3, 20 μM ATP), the Ki lay in the range of 1000 to 7000 nM.

Regarding `Cc1cc(Nc2nc(Sc3ccccc3Cl)nc3ccccc23)n[nH]1` [IIa-7, [2-(2-Chlorophenylsulfanyl)-quinazolin-4-yl]-(5-methyl-2H-pyrazol-3-yl)-amine], the Ki is 100 to 1000 nM in assay [1] (Ki values for GSK-3, 20 μM ATP) and under 100 nM in assay [2].

As to `Cc1cc(Nc2nc(Sc3c(Cl)cccc3Cl)nc3ccccc23)n[nH]1` [IIa-17, [2-(2,6-Dichlorophenylsulfanyl)-quinazolin-4-yl]-(5-methyl-2H-pyrazol-3-yl)-amine], the inhibitory constant (Ki) in assay [1] (setting [5]) and in assay [2] (setting [4]) was under 100 nM throughout.

Take `COc1ccc(Sc2nc(Nc3cc(C)[nH]n3)c3ccccc3n2)cc1` [IIa-4, [2-(4-Methoxyphenylsulfanyl)-quinazolin-4-yl]-(5-methyl-2H-pyrazol-3-yl)-amine]: the Ki was 100 to 1000 nM in assay [1] (Ki values for GSK-3, 20 μM ATP) and under 100 nM in assay [2] (setting [4]).

Turning to `Cc1cc(Nc2nc(COc3ccc(Cl)cc3)nc3c2CCCCC3)n[nH]1` [IId-5, [2-(4-Chlorophenoxymethyl)-6,7,8,9-tetrahydro-5H-cycloheptapyrimidin-4-yl]-(5-methyl-2H-pyrazol-3-yl)-amine], the Ki in assay [1] (Ki values for GSK-3, 20 μM ATP) lay in the range of 100 to 1000 nM; in assay [2], 100 to 1000 nM.

With `Cc1cc(Nc2nc(Sc3cccc(Cl)c3)nc3ccccc23)n[nH]1` [IIa-9, [2-(3-Chlorophenylsulfanyl)-quinazolin-4-yl]-(5-methyl-2H-pyrazol-3-yl)-amine], the Ki in assay [1] (Ki values for GSK-3, 20 μM ATP) was under 100 nM; in assay [2], under 100 nM.

As to `Cc1cc(Nc2nc(Nc3ccc4cn[nH]c4c3)nc3ccccc23)n[nH]1` [IIc-9, [2-(1H-Indazol-6-ylamino)-quinazolin-4-yl]-(5-methyl-2H-pyrazol-3-yl)-amine], the Ki was 100 to 1000 nM in assay [1] (Ki values for GSK-3, 20 μM ATP) and under 100 nM in assay [2] (setting [4]).

Usually Ki stands for the equilibrium dissociation constant of an inhibitor or competing ligand from its target.
